In patent EP0942911B1, “BENZOPYRANOPYRROLE AND BENZOPYRANOPYRIDINE ALPHA-1 ADRENERGIC COMPOUNDS” (Abbott Laboratories, priority 1996, dated 1998):

Molecular target: T1, α-1A adrenoreceptor (rat submaxillary gland) (Rattus norvegicus, UniProt P43140)
T1 sequence (P43140 1-466): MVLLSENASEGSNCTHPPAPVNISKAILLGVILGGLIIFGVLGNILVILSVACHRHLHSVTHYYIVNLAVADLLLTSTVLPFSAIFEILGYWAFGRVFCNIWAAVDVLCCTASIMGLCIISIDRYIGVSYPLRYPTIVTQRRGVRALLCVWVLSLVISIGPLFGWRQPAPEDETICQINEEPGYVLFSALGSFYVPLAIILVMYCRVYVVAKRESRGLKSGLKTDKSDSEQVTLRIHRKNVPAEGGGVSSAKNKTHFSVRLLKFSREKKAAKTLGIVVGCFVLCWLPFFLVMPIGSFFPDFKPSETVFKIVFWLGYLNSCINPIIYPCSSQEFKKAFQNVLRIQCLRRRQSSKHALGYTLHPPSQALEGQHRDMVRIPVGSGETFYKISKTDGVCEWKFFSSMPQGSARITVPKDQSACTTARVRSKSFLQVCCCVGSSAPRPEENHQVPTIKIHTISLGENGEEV
Details: read-out: Radioligand Binding (Ki, nM) 1A (Rat); [3H]-prazosin radioligand; rat submaxillary gland membranes

COc1cc2nc(N3CCN(C(=O)C4CCCO4)CC3)nc(N)c2cc1OC (stereo not shown) [Terazosin, terazosin, reference compound]
Ki: 0.829 nM
